From patent EP1881000A1, “Conjugates of 2-fluoro-2-deoxy-glucose and their uses as anti cancer agents” (INSTITUT NATIONAL DE LA SANTE ET DE LA RECHERCHE MEDICALE …, priority 2006, dated 2008)

Assay: Determination of the Maximum Tolerated Dose (MTD), acute toxicity after a single IP injection
Type: in vivo, male OF1 mice
Design: key: per mouse 0 = absent, 1 = present per sign; summed over group
Conditions: group sum
Experimental: Drugs were dissolved in a mixture of dimethylacetamide (Sigma) and oleic macrogolglycerides (Labrafil® M1944Cs, Gattefossé) (10:90%, vol/vol).
Initially, the Maximum Tolerated Dose (MTD) after intraperitoneal (IP) administration was determinated.
For MTD determination, study was conducted on male OF1 mice weighing about 30 g, 6-weeks old (Charles River, France). Groups of five to six mice received a single IP injection of each drug at variable doses according to the compound (see Tables 2, 3 and 4).
Individual dose were based on the body weight of each mouse. All the mice received a constant injection volume of 250 µL per 25 g of body weight. A group of seven control mice received the vehicle.
After IP injection, mice were weighed and observed every two days over a 2 week-period to evaluate general clinical state. For each animal, a clinical state score (CSS) was calculated based on the absence (value 0) or presence (value 1) of diarrhoea, lethargy, rough coat and closed eyes. CSS was then calculated per group by summing individual scores. Loss of weight and mortality were also recorded.

O=C(O)CCCc1ccc(N(CCCl)CCCl)cc1 [chlorambucil, reference compound]
Clinical State Score (CSS) closed eyes (single IP 0.0175 mmol/kg): 0
Clinical State Score (CSS) rough coat (single IP 0.0175 mmol/kg): 0
Clinical State Score (CSS) closed eyes (single IP 0.035 mmol/kg): 0
Clinical State Score (CSS) diarrhoea (single IP 0.035 mmol/kg): 2
Clinical State Score (CSS) rough coat (single IP 0.05 mmol/kg): 0
Clinical State Score (CSS) closed eyes (single IP 0.07 mmol/kg): 0
Clinical State Score (CSS) lethargy (single IP 0.07 mmol/kg): 0
Clinical State Score (CSS) closed eyes (single IP 0.09 mmol/kg): 0
Clinical State Score (CSS) lethargy (single IP 0.09 mmol/kg): 0
